Lamin A splicing – changes lamin A minigene splicing in HeLa cells | HeLa LMNA splicing GFP/RFP minigene ratio, 48 h | Potency, µM (titrated, usually from 46.1 µM), for inactives: at the top dose ratio change, negative = inhibition, usual class: inhibitors | hit rate 0.01% among 200,000 | AID 1487; active means well fitted inhibition curve with a large enough effect in the signal ratio, with a control signal flat, not every such curve was filed as active; inconclusive means small, poorly fitted or top-dose-only effect, or effect the other way, or a change in a side signal; the % refers to the signal ratio; further: potency means the concentration at half of the fitted maximal effect; on the % scale 0 is the no-effect control and ±100 the full control effect
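S3 HeLa stable clones carrying a lamin A-EGFP splicing minigene plus DsRed2 were seeded at 600 cells/well in Opti-MEM with 2% FBS, pin-dosed and incubated 48 h at 37°C. Acumen cytometry (488 nm) gave the GFP/RFP total-intensity ratio.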
miR-21 FLuc – miR-21 reporter, rising signal; HeLa miR-21 FLuc reporter, luciferase, 48 h; Potency, µM (highest dose often 38.3 µM), for the others: top-dose reporter change, positive = more light; 340,000 tested, under 10 active; AID 2288; active = well fitted rising curve with a large enough effect; inconclusive = small, poorly fitted or top-dose-only effect; inactive = no such curve, though single readings can be large or run the other way;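 further: % of control where 0% means no effect; miR-21 action dims this reporter so a rising signal means less miR-21 action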
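HeLa cells endogenously expressing miR-21, stably carrying CMV-driven firefly luciferase with a downstream miR-21 binding site, 2000 cells/well. Titrations up to approximately 40 uM, 48 hours; luciferase luminescence read.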
G9a inh – G9a (human) methyltransferase inhibition; AID 504332; hit rate 8.8% among 350,000; Q96KQ7; Potency, µM (series often up to 102 µM), inactives show at the highest dose activity, negative = inhibition, actives largely listed as inhibitors; G9a H3K9 monomethylation, AlphaScreen, 2 h; further: potency means the concentration at half of the fitted maximal effect; on the % scale 0 is the no-effect control and ±100 the full control effect; nearly all actives have a fitted effect of over 75% in size
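AlphaScreen read-out: biotin-H3K9 peptide (500 nM) methylation by 20 nM enzyme with 20 uM SAM, 2 h at room temperature after 15 min compound preincubation; anti-monomethyl H3K9 antibody plus donor/acceptor beads, 10 min dark.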
ALDH1A1 inh – inhibitors of human aldehyde dehydrogenase 1A1; Purified ALDH1A1, NADH fluorescence, propionaldehyde substrate; AID 1030; P00352; Potency, µM (top dose mostly 75.3 µM), for inactives: top-dose activity, negative = inhibition, actives largely listed as inhibitors; hit rate 7.3% among 220,000; active means well fitted inhibition curve with a large enough effect, not every such curve was filed as active; inconclusive means small, poorly fitted or top-dose-only effect, or another doubt; inactive means no such curve, though single readings can be large or run the other way;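 further: potency means the concentration at half of the fitted maximal effect; plate controls were no enzyme wells and a reference inhibitor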
Sfp inh – blocks B. subtilis Sfp PPTase activity; 310,000 tested, 3.5% active; AID 1490; Biochemical Sfp PPTase activity, qHTS; Potency, µM, for the others: max response, negative = inhibition, usual class: inhibitors; active = well fitted inhibition curve with a large enough effect; inconclusive = small, poorly fitted or top-dose-only effect, or another doubt; inactive = no such curve, though single readings can be large or run the other way;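 also: the enzyme is Sfp with the accession as filed and its product quenches rhodamine fluorescence; potency is read from the fitted curve at half-maximal effect; 0% = enzyme reaction without inhibitor and -100% = no enzyme wells; top concentration of the series not given in the record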
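Reaction rates are the 30-min fluorescence difference (ex 525, em 598 nm) in wells containing 15 nM Sfp, 5 uM rhodamine-CoA and 12.5 uM BHQ-2-YbbR at pH 7.6 with 10 mM MgCl2.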
JMJD2E inh – JMJD2E (human) inhibition; B2RXH2; JMJD2E catalytic domain, FDH-coupled NADH fluorescence (FDH is formaldehyde dehydrogenase); Potency, µM (series often up to 57.1 µM), inactives show at the top dose activity change, negative = inhibition, hits mostly inhibitors; hit rate 1.6% among 230,000; AID 2147; active means well fitted inhibition curve with a large enough effect, not every such curve was filed as active; inconclusive means small, poorly fitted or top-dose-only effect, or another doubt; inactive means no such curve, though single readings can be large or run the other way;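 further: potency means the concentration at half of the fitted maximal effect; 0% = wells with enzyme and -100% = buffer wells without enzyme; nearly all actives have a fitted effect of over 50% in size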
An asterisk follows results filed as active; u = inconclusive; x = no result; [ ] = remark or other dose. Most compounds without a hit are left out; they make up all but 13% or so of the library. Unless noted, the call rests on the fitted dose curve; in most records, active means well fitted curve in the direction sought with a large enough effect; inconclusive means small, poorly fitted or top-dose-only effect, or another doubt; inactive means no such curve, though single readings can be large; an effect the other way counts as inactive or inconclusive.

Codes – A = Lamin A splicing; B = miR-21 FLuc; C = G9a inh; D = ALDH1A1 inh; E = Sfp inh; F = JMJD2E inh
Cc1cccn2c(=O)nc(SCC(=O)c3ccccc3)nc12
  A: x	B: x	C: -37%[59 µM]	D: x	E: x	F: x

COc1ccc(C2c3cc(OC)c(OC)cc3Cc3c4cc(OC)c(OC)cc4cc[n+]32)cc1OC (stereo unspecified)
  A: x	B: x	C: x	D: -2%	E: -15%	F: -22%

Cc1cc(C(=O)COC(=O)Cc2n[nH]c(=O)c3ccccc23)c(C)n1-c1cccc(C(F)(F)F)c1
  A: u	B: 19%	C: u	D: 7.9µM*	E: -1%	F: -16%

O=C(CC1Sc2ccc(C(F)(F)F)cc2NC1=O)Nc1ccc(Cl)c(C(F)(F)F)c1 (stereo unspecified)
  A: x	B: 24%	C: -25%[59 µM]	D: x	E: x	F: x

CC(=O)Nc1cccc(NC(=O)c2sc3ncn(CC(=O)N4CCCCC4)c(=O)c3c2C)c1
  A: 16%	B: -2%	C: 5%[59 µM]	D: 0.89µM*	E: -4%	F: -4%

C=Cc1ccc(C(=O)NC2CCCN(Cc3ccccc3F)C2)cc1 (stereo unspecified)
  A: x	B: -3%	C: 21%	D: x	E: 9%	F: x

NS(=O)(=O)c1ccc(CNC(=O)/C=C/c2ccc(Cl)c(Cl)c2)cc1
  A: -4%	B: -6%	C: 1%[59 µM]	D: 20%	E: 5%	F: -7%

Cc1ccc(/C=C/C(=O)NCc2ccc3c(c2)OCO3)o1
  A: -8%	B: -8%	C: 10µM*	D: u	E: -91%	F: -6%

COc1ccc(/C=C/C(=O)NCCCN2CCCCCC2)cc1
  A: x	B: -5%	C: 50µM*	D: x	E: 1%	F: x

COc1ccc2cc(/C=C/C(=O)N3CCN(CC(=O)N4CCCCCC4)CC3)ccc2c1
  A: x	B: -17%	C: 71µM*	D: x	E: 5%	F: x

CC(C)c1ccc(/C=C/C(=O)NCc2ccc(S(N)(=O)=O)cc2)cc1
  A: 19%[46 µM]	B: -19%	C: u	D: 28µM*	E: 21%	F: -4%

COc1ccc(/C=C/C(=O)NCCc2ccc(S(N)(=O)=O)cc2)cc1
  A: 9%	B: -9%	C: -7%[59 µM]	D: 10µM*	E: 10%	F: -2%

Cc1cc(C(=O)NCC2COc3ccccc3O2)c2ccccc2n1 (stereo unspecified)
  A: u	B: 6%	C: 45µM*	D: -4%	E: 18%	F: -3%

O=C(NCC1COc2ccccc2O1)c1ccccc1 (stereo unspecified)
  A: 8%	B: -46%	C: -1%	D: 8%	E: -7%	F: 6%

Cc1ccc(/C=C/C(=O)NCC2COc3ccccc3O2)o1 (stereo unspecified)
  A: x	B: 1%	C: u	D: 6.3µM*	E: 6.3µM*	F: -7%

O=C(/C=N/O)NCCCN1CCCCCC1
  A: 7%	B: 2%	C: 45µM*	D: 15%	E: 2%	F: -14%

O=C(CNC(=O)Cc1ccccc1)N=Nc1c(O)[nH]c2ccccc12
  A: x	B: 0%	C: -14%	D: x	E: 15%	F: x

Cc1ccc(/C=C/C(=O)NCc2ccccn2)o1
  A: 9%	B: -3%	C: u	D: u	E: -60%	F: -23%

O=C(/C=C/c1ccco1)NCc1ccc(F)cc1
  A: u	B: -7%	C: u	D: 18µM*	E: 40µM*	F: -22%

Cc1ccc(/C=C/C(=O)NCc2ccc(S(N)(=O)=O)cc2)o1
  A: x	B: -1%	C: 2µM*	D: 1.8µM*	E: 3.5µM*	F: -7%

O=C(CN1CCN(Cc2ccccc2)CC1)N=Nc1c(O)[nH]c2ccccc12
  A: 10%	B: -16%	C: 3%[59 µM]	D: 11%	E: 6%	F: 1%

O=C(CN1CCCCC1)N=Nc1c(O)[nH]c2ccccc12
  A: x	B: 1%	C: x	D: 13µM*	E: -22%	F: 5%

O=C(CNC(=O)/C=C/c1ccco1)N=Nc1c(O)[nH]c2ccccc12
  A: x	B: -3%	C: 35µM*	D: x	E: 20µM*	F: x

CC(=O)Nc1nc(-c2cc([N+](=O)[O-])cs2)cs1
  A: -8%[46 µM]	B: 0%	C: u	D: 3%	E: 7%	F: 0%

O=C(CN1C(=O)CSc2ccc(S(=O)(=O)N3CCCCC3)cc21)NCc1ccccc1Cl
  A: x	B: 5%	C: 8%	D: x	E: 3%	F: x

C=C1CC[C@H](O)C/C1=C/C=C1\CCC[C@]2(C)[C@H]1CC[C@H]2[C@@H](C)/C=C\[C@@H](C)C(C)C
  A: u	B: x	C: u	D: -4%[20.9 µM]	E: u	F: 6%[25.5 µM]

NS(=O)(=O)c1ccc(CNC(=O)/C=C/c2ccco2)cc1
  A: x	B: -1%	C: 40µM*	D: x	E: 20µM*	F: -21%

NS(=O)(=O)c1ccc(CNC(=O)/C=C/c2cccc([N+](=O)[O-])c2)cc1
  A: x	B: -5%	C: -2%	D: x	E: 8%	F: -3%

Cc1ccc2c(c1)N(C(=O)c1ccco1)C(C)(C)c1ssc(=S)c1-2
  A: 20%	B: -5%	C: 11µM*	D: 0%	E: -9%	F: 2%

Cc1ccc2c(c1)N(C(=O)CSc1nncn1C)C(C)(C)c1ssc(=S)c1-2
  A: 13%	B: 1%	C: 14µM*	D: -1%	E: -19%	F: 9%

CC1=CC(C)(C)N(C(=O)CSc2nncn2C)c2ccccc21
  A: -5%	B: -6%	C: 13%[59 µM]	D: 0%	E: 21%	F: 3%

Cc1cc2c(cc1C)N(C(=O)CSc1nncn1C)C(C)(C)c1ssc(=S)c1-2
  A: -18%	B: -4%	C: 8.9µM*	D: 0%	E: -13%	F: -8%

CCc1nn2c(=O)c(S(=O)(=O)Nc3ccc(C)c(C)c3)c(C)nc2s1
  A: x	B: 5%	C: u	D: x	E: x	F: x

COC(=O)c1ccc(C(NC(=O)OCc2ccccc2)/C(=C/[C@@H](C)C(=O)NCc2ccc(OC)c(O)c2)c2cccnc2)cc1 (stereo partly specified)
  A: x	B: x	C: x	D: -5%	E: -8%	F: 3%

Cc1cc(Cl)c(OCCCCN2CCOCC2)c(Br)c1
  A: -5%	B: -10%	C: u	D: u	E: -37%	F: 1%

COCCCNCCCCOc1c(Cl)cc(C)cc1Br
  A: -9%	B: -2%	C: x	D: u	E: -53%	F: u

Cc1cc(Cl)c(OCCCNC2CCCC2)c(Br)c1
  A: x	B: 12%	C: 10µM*	D: x	E: 0%	F: x

Cc1cc(Cl)c(OCCOCCN2CCCCC2)c(Br)c1
  A: 14%	B: -1%	C: 7.1µM*	D: u	E: 63µM*	F: 7%

Cc1cc(Cl)c(OCCOCCN2CCCC(C)C2)c(Br)c1 (stereo unspecified)
  A: x	B: 2%	C: 16µM*	D: -11%	E: -14%	F: u

COC(=O)c1ccc(NC(=O)Cn2ccn3nc(-c4ccc(OC)cc4)cc3c2=O)cc1
  A: -11%[46 µM]	B: -21%	C: 7%[12.7 µM]	D: x	E: x	F: x

Cc1ccc(C(=O)N2N=C(c3ccccc3O)CC2c2ccccc2)cc1 (stereo unspecified)
  A: x	B: -3%	C: 1%	D: x	E: -17%	F: x

Oc1ccccc1C1=Nc2ncnn2C(c2ccccc2)C1 (stereo unspecified)
  A: u	B: -2%	C: 18µM*	D: u	E: 0%	F: -11%

Cn1c(=O)c2sccc2n(Cc2cccc(Br)c2)c1=O
  A: x	B: 3%	C: x	D: x	E: -3%	F: x

CCCN1C(=O)/C(=C\C=C2/Sc3ccccc3N2CCO)SC1=S
  A: 4%[46 µM]	B: -1%	C: u	D: 6%	E: u	F: 5%

CN1CCS/C1=C\C=C1/SC(=S)N(CC(=O)O)C1=O
  A: x	B: 7%	C: 40µM*	D: -8%	E: -1%	F: -7%

CCCCN1C(=O)/C(=C/C=C2\Oc3ccccc3N2CC)SC1=S
  A: x	B: -4%	C: 17%[0.501 µM]	D: u	E: -26%	F: -1%

CCCCN1C(=O)/C(=C/C=C2/CC(C)(C)CN2C)SC1=S
  A: u	B: -47%	C: u	D: 6.3µM*	E: -8%	F: -4%

CCN1C(=O)/C(=C/C=C2/SCCN2C)SC1=S
  A: 12%	B: -66%	C: 8.9µM*	D: u	E: 14%	F: -4%

By substructure: the compounds so far containing a CF3 group.
Codes – A = Lamin A splicing; B = miR-21 FLuc; C = G9a inh; D = ALDH1A1 inh; E = Sfp inh; F = JMJD2E inh
Cc1cc(C(=O)COC(=O)Cc2n[nH]c(=O)c3ccccc23)c(C)n1-c1cccc(C(F)(F)F)c1
  A: u	B: 19%	C: u	D: 7.9µM*	E: -1%	F: -16%

O=C(CC1Sc2ccc(C(F)(F)F)cc2NC1=O)Nc1ccc(Cl)c(C(F)(F)F)c1 (stereo unspecified)
  A: x	B: 24%	C: -25%[59 µM]	D: x	E: x	F: x

Assay outcomes (PubChem BioAssay)
